According to patent US20070254313A1, “Gnal Splice Variant and Uses Thereof” (AstraZeneca AB, priority 2003, published 2007):

Molecular target: human β2 adrenergic receptor (human) (UniProt P07550)
Test: cell-based or functional assay

magnitude of (-)-isoproterenol-induced GTPγS binding above the baseline, membranes of Sf9 cells expressing β2 receptor and Gαs short (% above the baseline): 350
Substance: human Gαs short (from UniProt P63092 2-394)
